From PMC7512223 (Molecular Diversity, 2020)

Chains of the proteins cited; added tags and fusions are not shown.
UniProt P27338, whole entry: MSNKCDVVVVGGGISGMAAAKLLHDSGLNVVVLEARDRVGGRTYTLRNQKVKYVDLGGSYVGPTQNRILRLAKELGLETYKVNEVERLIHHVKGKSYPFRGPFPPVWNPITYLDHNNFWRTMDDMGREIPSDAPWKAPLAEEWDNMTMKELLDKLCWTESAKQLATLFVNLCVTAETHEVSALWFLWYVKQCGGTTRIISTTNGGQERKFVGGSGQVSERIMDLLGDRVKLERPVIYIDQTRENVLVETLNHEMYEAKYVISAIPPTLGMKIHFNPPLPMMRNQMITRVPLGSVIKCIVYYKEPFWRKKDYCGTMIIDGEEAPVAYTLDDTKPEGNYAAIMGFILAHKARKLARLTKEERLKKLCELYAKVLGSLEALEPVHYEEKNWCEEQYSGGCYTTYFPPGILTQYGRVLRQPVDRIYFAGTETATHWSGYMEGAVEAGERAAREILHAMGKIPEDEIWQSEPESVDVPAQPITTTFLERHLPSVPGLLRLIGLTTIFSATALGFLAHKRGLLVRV

Biological target: MAO-B (Homo sapiens, UniProt P27338)
Test: Inhibition of recombinant human MAO-B, kynuramine fluorometric assay
Assay type: biochemical
Conditions: MAO-B over MAO-A

**Q.** `O=C1CCCc2cc(OCc3ccc(Cl)cc3)ccc21` [1g, 6-(4-Chlorobenzyloxy)-1-tetralone] was tested. Which “Selectivity index (SI) = IC50(MAO-A)/IC50(MAO-B)” value did it give?
**A.** Its value is 105.
